HCMV NEC inh: inhibitors of HCMV UL50-UL53 nuclear egress complex interaction; HTRF UL50-UL53 interaction, normalized percent inhibition; inhibition, % (test concentration not listed); 190,000 tested, 0.15% active; AID 1918969; in the data active = inhibition above about 27%, passing the limit was not always enough
GIV Gai3 FP: inhibitors of GIV peptide binding to Galpha-i3, primary screen, biochemical, fluorescence polarization, FITC-GIV GBA peptide, rat Galphai3; 90 min; stronger effect = lower value; scaled: aluminum fluoride 0%, vehicle 100%; percent of control (FP), % (test concentration not listed); 0.42% of 210,000 active; AID 1224905, 2016;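 active = replicate mean at 85% of control or lower, very high polarization wells dropped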;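 also: wells of about 15 µL received 100 nL stock; the first replicate is given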
GIV Gai FP conf: GIV-Galpha-i3 inhibition, FP confirmation; fluorescence polarization, mP at 100 µM; FITC-GIV peptide binding to Galphai3, fluorescence polarization; stronger effect = lower value; 580 tested, 38% active; shares compounds with GIV Gai3 FP;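 active = inhibition score of 15 or more, meaning 100 minus mean polarization as percent of control over three replicates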
GIV-Gai AS conf: GIV-Galpha-i3 inhibition, AlphaScreen confirmation; shares compounds with GIV Gai3 FP; AlphaScreen Galphai3-GIV binding, purified proteins, 90 min; stronger effect = lower value; AlphaScreen counts at 100 µM; 580 tested, 39% active; AID 1259351;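 active = inhibition score at or above a set limit, where the score is 100 minus the three-replicate mean percent of control signal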
Active calls of the source: *; nt = not tested or not shown. Hits are enriched below; roughly 0.43% of the tested compounds scored in any of these assays.

Key to letters: A = HCMV NEC inh; B = GIV Gai3 FP; C = GIV Gai FP conf; D = GIV-Gai AS conf
1	Cc1ccc2c(Sc3ccc(Cl)cc3)c(C(=O)NC(C)C)[nH]c2c1
  A: -16; B: 57*; C: 60; D: 42527

2	CCC(C)NC(=O)c1[nH]c2cc(C)ccc2c1Sc1ccc(Cl)cc1 (stereo not drawn)
  A: -14; B: 101; C: nt; D: nt

3	Cc1nc(N2CCCC2)nc2oc(-c3ccccc3)nc12
  A: -31; B: 115; C: nt; D: nt

4	Cc1nc(N2CCN(c3ccccn3)CC2)nc2oc(-c3ccccc3)nc12
  A: -16; B: 93; C: 98; D: 26416

5	Fc1ccc(-c2nn3c(-c4ccncc4)nnc3s2)cc1Br
  A: -2; B: 104; C: nt; D: nt

6	CC(NC(=O)c1ccccc1C(=O)NC(C)c1ccc2c(c1)OCCO2)c1ccc2c(c1)OCCO2 (stereo not drawn)
  A: -25; B: 105; C: nt; D: nt

7	CC(NCCO)c1ccc2c(c1)OCCO2 (stereo not drawn)
  A: -2; B: 78*; C: 75; D: 36499

8	Cc1cccc(CC(=O)NCCc2nc(-c3ccccc3)n[nH]2)c1
  A: -24; B: 94; C: nt; D: nt

9	C=CCc1ccccc1OCC(O)CN1CCNCC1 (stereo not drawn)
  A: -14; B: 104; C: nt; D: nt

10	COc1ccc(C(=O)NC(c2ccccc2Cl)c2cc(Cl)c3cccnc3c2O)cc1 (stereo not drawn)
  A: nt; B: 92; C: nt; D: nt

11	COc1ccc(C(=O)NC(c2ccc(C)cc2)c2cc(Cl)c3cccnc3c2O)cc1 (stereo not drawn)
  A: nt; B: 80*; C: 61*; D: 89449

12	Cc1ccc(NC(=O)C(C)Sc2nc(N)cc(N)n2)c(C)c1 (stereo not drawn)
  A: -27; B: 103; C: nt; D: nt

13	Oc1ccccc1C=Nc1cccnc1
  A: -5; B: 83*; C: 42*; D: 16309*

14	Oc1ccc(N=Cc2ccccc2O)cc1
  A: 7; B: 104; C: nt; D: nt

15	COc1ccc(-c2nc(-c3ccc4c(c3)[nH]c(=O)c(=O)n4C)no2)cc1OC
  A: 4; B: 86; C: 81; D: 27124

16	COc1ccc(-c2nc(-c3ccc4c(c3)[nH]c(=O)c(=O)n4C)no2)cc1
  A: 16; B: 103; C: nt; D: nt

17	Cc1c(C=Nc2ccc(SC#N)c(Cl)c2)c(O)[nH]c(=O)c1C#N
  A: -16; B: 49*; C: 74; D: 40787

18	Cc1c(C=Nc2ccc(Cl)cc2)c(O)n(C)c(=O)c1C#N
  A: -35; B: 108; C: nt; D: nt

19	Cc1ccc(C)c(CC2C(=O)Nc3ccc(C)cc32)c1 (stereo not drawn)
  A: -14; B: 99; C: nt; D: nt

20	Cc1cc(C)cc(S(=O)(=O)Nc2cc(C(=O)O)cnc2N(CC(C)C)CC(C)C)c1
  A: -34; B: 117; C: nt; D: nt

21	CCN(CC)c1ncc(C(=O)O)cc1NS(=O)(=O)c1c(C)cc(C)cc1C
  A: -21; B: 81*; C: 71; D: 22183

22	CC(C)c1ccc(S(=O)(=O)Nc2cc(C(=O)O)ccc2N(C)C)cc1
  A: 11; B: 103; C: nt; D: nt

23	CN(C)c1ncc(C(=O)O)cc1NS(=O)(=O)c1ccccc1
  A: -38; B: 49*; C: 36*; D: 8377*

24	CN1CCN(c2ccc(C(=O)O)cc2NS(=O)(=O)c2ccccc2)CC1
  A: -9; B: 112; C: nt; D: nt

25	CCN(CC)c1ncc(NS(=O)(=O)c2cc(C)c(C)cc2C)cc1C(=O)O
  A: -40; B: 107; C: nt; D: nt

26	CCN(CCN(C)C)c1ncc(NS(=O)(=O)c2cc(C)c(C)cc2C)cc1C(=O)O
  A: -42; B: 58*; C: 43*; D: 27195

27	CCN(CCN(C)C)c1ncc(C(=O)O)cc1NS(=O)(=O)c1ccc(C(C)C)cc1
  A: -18; B: 60*; C: 41*; D: 35632

28	CCN=C(Nc1ccc2c(c1)OCO2)SC1CC(=O)N(c2ccc(C(=O)OC)cc2)C1=O (stereo not drawn)
  A: 2; B: 100; C: nt; D: nt

29	Cc1ccc(C2C3=C(Nc4ncnn42)c2cc(Cl)ccc2OC3c2ccc(F)cc2)cc1 (stereo not drawn)
  A: nt; B: 104; C: nt; D: nt

30	Cc1ccc(OCC(=O)Nc2cc3c(cc2SC(C)C)n(C)c(=O)n3C)cc1
  A: -36; B: 106; C: nt; D: nt

31	CCn1c(-c2cccs2)c(CNC(=O)Nc2ccc3c(c2)OCCO3)c2ccccc21
  A: -2; B: 109; C: nt; D: nt

32	CCN(CCN(C)C)c1ncc(C(=O)O)cc1NS(=O)(=O)c1ccc(F)c(F)c1
  A: -13; B: 61*; C: 36*; D: 38193

33	CCCCN(C)c1ncc(C(=O)O)cc1NS(=O)(=O)c1cc(F)ccc1F
  A: -46; B: 112; C: nt; D: nt

34	CCCN1C(=O)NC2(O)C(=O)c3ccccc3C12O (stereo not drawn)
  A: nt; B: 77*; C: 57; D: 47718

35	CN1C(=O)NC2(O)C(=O)c3ccccc3C12O (stereo not drawn)
  A: nt; B: 110; C: nt; D: nt

36	CNC(=O)C1CCCN(c2nc3ncn(CC(=O)NCCC4=CCCCC4)c(=O)c3s2)C1 (stereo not drawn)
  A: nt; B: 101; C: nt; D: nt

37	CCOC(=O)c1c(C)oc2c1c(O)c(N=O)c1ccccc12
  A: -53; B: 42*; C: 48*; D: 50417

38	CCOC(=O)c1c(C)oc2c1c(C=NC(C)c1ccccc1)c(O)c1ccccc12 (stereo not drawn)
  A: nt; B: 103; C: nt; D: nt

39	Cn1c(=O)oc2cc(S(=O)(=O)N3CCN(C(=O)C4CC(=O)N(c5ccccc5)C4)CC3)ccc21 (stereo not drawn)
  A: nt; B: 110; C: nt; D: nt

40	C=CCn1c(SC)nc2sc(C)c(C)c2c1=O
  A: nt; B: 101; C: nt; D: nt

41	CNc1nnc(-c2ccccc2)s1
  A: -30; B: 104; C: nt; D: nt

42	Cc1ccc(C)n1-c1ccccc1C(=O)O
  A: 30; B: 5.7*; C: 11*; D: 1962*

43	CCCOc1ccc(Cl)cc1C(=O)O
  A: 3; B: 100; C: nt; D: nt

44	CC(=O)Nc1ccc(-n2c(C)ccc2C)c(C(=O)O)c1
  A: 5; B: nt; C: nt; D: nt

45	Cc1ccc(C)n1-c1cc(Cl)ccc1C(=O)O
  A: 80*; B: 60*; C: 59*; D: 2339*

46	Cc1cc(N2CCOCC2)nc(N2CCN(S(=O)(=O)c3ccc(F)cc3)CC2)n1
  A: nt; B: 105; C: nt; D: nt

47	Cc1cccc(-c2nc3nc(C)cc(N4CCN(c5ccccc5)CC4)n3n2)c1
  A: -36; B: 103; C: nt; D: nt

48	Cc1ccc(-c2nc3nc(C)cc(N4CCN(c5cccc(C)c5)C(C)C4)n3n2)cc1 (stereo not drawn)
  A: 10; B: 73*; C: 84; D: 32703

49	CCN(C(=O)Cn1ncc2c(=O)oc3ccccc3c21)c1cc(OC)ccc1OC
  A: 4; B: 86; C: 65; D: 47620

50	CCOc1ccccc1N(CC)C(=O)Cn1ncc2c(=O)oc3ccccc3c21
  A: -8; B: 100; C: nt; D: nt

Individual results from the results shown:
compound 42 | GIV-Gai AS conf: 1962*
compound 48 | GIV Gai3 FP: 73*
compound 41 | GIV Gai3 FP: 104
compound 32 | HCMV NEC inh: -13

Remaining list, next part.
Key to letters: A = HCMV NEC inh; B = GIV Gai3 FP; C = GIV Gai FP conf; D = GIV-Gai AS conf
51	CC(NC(=O)C1CCN(c2ncccn2)CC1)c1ccncc1 (stereo not drawn)
  A: 9; B: 103; C: nt; D: nt

52	O=C(O)C1CC(=O)N(Cc2ccc3c(c2)OCO3)C1 (stereo not drawn)
  A: 30; B: 51*; C: 18*; D: 1816*

53	O=C(O)C1CC(=O)N(Cc2ccc(F)cc2)C1 (stereo not drawn)
  A: nt; B: 99; C: nt; D: nt

54	COc1ccc(Cl)cc1N(CC(=O)N1CCCCCC1)S(=O)(=O)c1ccc(C)c([N+](=O)[O-])c1
  A: -19; B: 103; C: nt; D: nt

55	CSc1scc2c1C(=O)CC(C)(C)C2
  A: -8; B: 103; C: nt; D: nt

56	CSc1scc2c1C(=O)/C(=C/N(C)C)CC2
  A: -84; B: 14*; C: 29*; D: 1880*

57	COc1ccc(NC(=O)CCc2c(C)nc3c(-c4ccc(F)cc4)c(C)nn3c2C)c(OC)c1
  A: -7; B: 92; C: 80; D: 32949

58	COc1ccc(OC)c(NC(=O)CCc2c(C)nc3c(-c4ccccc4)c(C)nn3c2C)c1
  A: -5; B: 101; C: nt; D: nt

59	COc1ccc(-c2nc3c(=O)n(C)c(=O)nc-3n(C)n2)cc1OC
  A: 74; B: 57*; C: 42*; D: 27053*

60	COc1ccc(-c2c(-c3ccc(OC)c(OC)c3)c(C)n(C)c2C)cc1OC
  A: -44; B: 118; C: nt; D: nt

61	Cn1nc(-c2ccc(F)cc2)nc2c(=O)n(C)c(=O)nc1-2
  A: 83*; B: 15*; C: 28*; D: 22497

Full records from above. Order of screens: HCMV NEC inh	GIV Gai3 FP	GIV Gai FP conf	GIV-Gai AS conf
CC(C)c1ccc(S(=O)(=O)Nc2cc(C(=O)O)ccc2N(C)C)cc1 as listed: 11	103	nt	nt
Cc1ccc(NC(=O)C(C)Sc2nc(N)cc(N)n2)c(C)c1 (stereo not drawn) as listed: -27	103	nt	nt

Compound activity deposited in PubChem BioAssay by ICCB-Longwood Screening Facility, Harvard Medical School.
